Tests used:
ACE-1/ACE-2 ratio [1] = test: Rat plasma serum ELISA, ACE-1/ACE-2 ratio; type: in vivo; conditions: FIG. 5C
TNF-alpha = test: Human study, serum ELISA, TNF-alpha; type: in vivo; conditions: Group A, from BL to Wk5, p<0.05
Protocol: (§1) A human study was run with a total of 80 healthy male and female subjects ranging from 21 to 65 years of age, who were active (i.e. 30 minutes per day of moderate activity, 3 days per week) are randomized into two groups. One group was supplemented with 2 g daily of L-carnitine tartrate and one group was supplemented with a placebo matching control for a period of 5 weeks. Seventy-three subjects completed the trial and biomarker data were analyzed from the sera of the 73 completers. […]
(§2) To obtain human sera, venous blood was extracted by venipuncture of the antecubital vein using a 21-gauge syringe and collected into a 10 mL EDTA vacutainer tube (BD Vacutainer®, Becton, Dickinson and Company, Franklin Lakes, NJ) by a certified phlebotomist. […] Human ACE-1, ACE-2, TMPRSS2, Furin, CRP and TNF-alpha protein levels were assessed using commercially available ELISA kits, according the manufacturer recommendations, ACE-1 (R&D systems Inc., Minneapolis, MN, USA), ACE-2 (RayBiotech inc., Peachtree Corners, GA), TMPRSS2 (Novus Biologicals, Littleton, CO), CRP (R&D Systems Inc., Minneapolis, MN), TNF-alpha (Novus Biologicals, Littleton, CO), and Furin (Sigma Aldrich, St. Louis, MO). […]

ACE-2 = type: in vivo, rat; conditions: exercising rats, liver and muscle samples, 25-400 mg/kg oral, 6 weeks, FIGS. 1-4
ACE-1/ACE-2 ratio [2] = test: Human study, serum ACE-1/ACE-2 ratio; type: in vivo; conditions: 2 g daily, 5 weeks
Protocol: as §1, §2

C[N+](C)(C)C[C@H](O)CC(=O)[O-] [L-carnitine]
ACE-1/ACE-2 ratio, level lower than the control (ACE-1/ACE-2 ratio [1]; exercised rats with supplementation, serum): 60%
serum ACE-1/ACE-2 ratio (ACE-1/ACE-2 ratio [1]; exercised rats, plasma serum, ELISA): closer to the control levels
TNF-α relative percent change (TNF-alpha): -9%
ACE-2 levels (western blotting and mRNA fold change) (ACE-2): significant and dose dependent decrease
ACE-1/ACE-2 ratio (ACE-1/ACE-2 ratio [2]): No changes occurred
